Compound activity deposited in PubChem by National Center for Advancing Translational Sciences (NCATS).
hERG WT inh: blocks the wildtype human KCNH2 potassium channel; Q12809; U2OS, BacMam KCNH2, thallium flux FluxOr; stronger effect = lower value; activity change, % at 1.84 µM; 340,000 tested, 0.37% active;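 active means maximum activity change below -70%; inconclusive means maximum activity change between -70% and -50%; inactive means maximum activity change above -50%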; further: on the % scale 0 is the no-effect control and ±100 the full control effect
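U2OS cells were transduced with wild-type KCNH2 virus (2.03 x 10^8 / mL) for 4 h at room temperature, then cultured overnight at 37 C. Thallium flux was read with FluxOr dye. Rate constants were normalized to DMSO controls.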
Rango release inh: prevents RanGTP from dissociating the Rango-importin beta complex | O95149+P62826 | Biochemical FRET Rango-importin beta, RanGTP-induced dissociation | Potency, µM (highest dose often 46.1 µM), for inactives: top-dose activity change, negative = inhibition | 340,000 tested, 0.071% active; further: potency means the concentration at half of the fitted maximal effect; % of control where 0% means no effect; nearly all actives have a fitted effect of over 45% in size
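Quantitative HTS using a FRET biosensor: 0.1 uM Rango, 0.25 uM importin beta, 0.6 uM Ran, 2 mM GTP, 0.2 uM RCC1 final, PBS with DTT, Tween-20 and BSA. Post-read taken 45 min after Ran addition.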
Rango-impB inh: Rango-importin beta binding inhibition | Rango CFP/YFP FRET sensor + importin beta, 45 min | Potency, µM (doses to about 92.2 µM), inactives show at the top dose inhibition of complex formation | 340,000 tested, 0.031% active;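 further: potency means the concentration at half of the fitted maximal effect; 0% = DMSO wells and 100% = buffer wells lacking importin beta; nearly all actives have a fitted effect of over 15% in size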
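FRET biosensor Rango (snurportin 1 IBB between N-terminal EYFP and C-terminal Cerulean), 50 nM in PBS/1 mM DTT/0.02% Tween-20/0.1% BSA, preincubated 5 min RT with compound; 0.125 microM importin beta added, 45 min RT, CFP/YFP FRET ratio read.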
KCNH2 3.1 block: inhibitors of human KCNH2 3.1 potassium channel isoform; U2OS KCNH2 3.1, thallium flux FluxOr; stronger effect = lower value; activity change, % (tested at about 1.8 µM); 340,000 tested, 0.95% active;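 active means maximum activity change below -70%; inconclusive means maximum activity change from -70% to -50%; inactive means maximum activity change above -50%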;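 further: thallium influx rate constant from kinetic fluorescence after stimulation buffer; on the % scale 0 is the no-effect control and ±100 the full control effect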
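FluxOr-based Tl+ influx in U2OS cells transduced with KCNH2 3.1 virus; rate constants normalized to DMSO controls.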
* hit, by the source's call; ? = inconclusive; · = no result. Compounds with a hit are over-represented: about 1.3% of the library has one in this group of screens. Unless noted, the call rests on the fitted dose curve.

entry	Compound	hERG WT inh	Rango release inh
1	COc1ccc(S(=O)(=O)N(C)C[C@H]2Oc3ccc(NS(=O)(=O)c4cccs4)cc3C(=O)N([C@H](C)CO)C[C@@H]2C)cc1	-3	3%
2	Cc1ccc(CN2C(=O)CCC2C(=O)NCCc2ccccc2)cc1 (centres undefined)	-13	-3%
3	c1ccc(COc2ncnc3c2ncn3CCCNCC(c2ccccc2)c2ccccc2)cc1	-18	·
4	Cc1ccc(Cl)cc1N1C(=O)CC(Sc2ccccc2N)C1=O (centres undefined)	5	·
5	CCN1C[C@@H]2[C@@H]3C(=O)N(Cc4ccccc4)C(=O)[C@@H]3[C@](CC)(C1=O)N2C(=O)c1ccccc1	3	-20%
6	Cc1ccccc1OCC(O)CN1CCC(C)CC1 (centres undefined)	11	21%
7	OC(COc1ccccc1)CN1CCC(Cc2ccccc2)CC1 (centres undefined)	0	3%
8	OC(COc1ccc(F)cc1Cl)CN1CCC(Cc2ccccc2)CC1 (centres undefined)	?	0%
9	OC(COc1ccccc1F)CN1CCC(Cc2ccccc2)CC1 (centres undefined)	-21	1%
10	C[C@H](NC(=O)c1ccccc1Cl)C(=O)OCc1cn2cc(Cl)ccc2n1	1	3%
11	O=C(Cn1c(=O)cnc2ccccc21)NNC(=O)c1ccccc1Cl	-8	17%
12	O=C(/C=C/c1ccc2c(c1)OCO2)Nc1nncs1	-7	3%

entry	Rango-impB inh	KCNH2 3.1 block
1	2%	-1
2	-1%	11
3	·	-72*
4	·	-8
5	4%	7
6	0%	-80*
7	0%	-115*
8	0%	-93*
9	-4%	?
10	-1%	-3
11	-4%	-4
12	0%	-16

(list continues)
entry	Compound	hERG WT inh	Rango release inh
13	CC(C)(C)c1ccc(/C=C/C(=O)Nc2nncs2)cc1	14	-1%
14	O=C(NCCC(=O)N1CCN(c2ccccc2O)CC1)c1ccc(Br)cc1	3	6%
15	O=C(NCCC(=O)N1CCN(c2cccc(Cl)c2)CC1)c1ccc(Br)cc1	8	-3%
16	CCCCn1c(N)c(N(CCC(C)C)C(=O)c2c(C)noc2C)c(=O)[nH]c1=O	?	-24%
17	NC(=O)CC(NC(=O)Cc1ccc(Br)cc1)c1ccc(NC2CCN(Cc3ccccc3)CC2)c([N+](=O)[O-])c1 (centres undefined)	10	0%
18	O=[N+]([O-])c1ccc(NC2CCN(Cc3ccccc3)CC2)c([N+](=O)[O-])c1	-74*	13%
19	O=[N+]([O-])c1ccccc1NC1CCN(Cc2ccccc2)CC1	20	-6%
20	O=C(CCC(=O)c1ccc(Cl)s1)Nc1ncccc1O	9	-8%
21	CCC(C)N(C)Cc1cccc(C2(O)CCN(S(=O)(=O)c3ccc(F)c(C)c3)CC2)c1 (centres undefined)	-43	12%
22	Cc1cc(S(=O)(=O)N2CCN(c3c(C)cccc3C)CC2)ccc1F	-4	-9%
23	COCCCNC(=O)/C(C#N)=C/c1c(N2CCN(c3ccc(OC)cc3)CC2)nc2c(C)cccn2c1=O	4	4.6µM*
24	COc1ccc(C(=O)OC2C(OC)OCC(O)C2O)cc1 (centres undefined)	-1	9%

entry	Rango-impB inh	KCNH2 3.1 block
13	-1%	-83*
14	0%	3
15	-6%	-75*
16	-2%	6
17	52µM*	-5
18	-5%	-96*
19	0%	?
20	-3%	18
21	0%	-100*
22	5%	23
23	?	3
24	-1%	8

Whole records from above. Values in the order: hERG WT inh | Rango release inh | Rango-impB inh | KCNH2 3.1 block
O=C(CCC(=O)c1ccc(Cl)s1)Nc1ncccc1O in the list: 9 | -8% | -3% | 18
O=C(NCCC(=O)N1CCN(c2ccccc2O)CC1)c1ccc(Br)cc1 in the list: 3 | 6% | 0% | 3
O=[N+]([O-])c1ccc(NC2CCN(Cc3ccccc3)CC2)c([N+](=O)[O-])c1 in the list: -74* | 13% | -5% | -96*
O=C(NCCC(=O)N1CCN(c2cccc(Cl)c2)CC1)c1ccc(Br)cc1 in the list: 8 | -3% | -6% | -75*

The list continues:
entry	Compound	hERG WT inh	Rango release inh
25	O=[N+]([O-])c1ccc(C(O)CN2CCN(C/C=C/c3ccccc3)CC2)cc1 (centres undefined)	-94*	-12%
26	O=[N+]([O-])c1ccc(C(O)CN2CCN(Cc3ccccc3)CC2)cc1 (centres undefined)	-16	9%
27	OC(CN1CCN(Cc2ccccc2)CC1)c1ccccc1 (centres undefined)	11	-7%
28	O=c1[nH]c2ccc(Br)cc2c(=O)o1	-10	·
29	Cn1nnnc1NCc1ccccc1F	-1	-4%
30	CN(C1CCCCC1)S(=O)(=O)c1cccc(C(=O)OCC(=O)NC2CCCc3ccccc32)c1 (centres undefined)	53	-11%
31	CN(CC(=O)NC1CCCc2ccccc21)C1CCCCC1 (centres undefined)	0	-2%
32	Cc1c(Br)c([N+](=O)[O-])nn1CC(=O)N1CCc2ccccc21	-4	-1%
33	Cc1nn(CC(=O)N2CCc3ccccc32)c(C)c1S(=O)(=O)NC(C)(C)C	-283*	-2%
34	COc1ccc(-c2csc3nc(C)nc(N4CCC(C)CC4)c23)cc1OC	6	1%
35	CC(=O)Nc1ccc(/C=C/c2nc(-c3ccccc3O)n[nH]2)cc1	0	-9%
36	N#C/C(=C\c1ccccc1Br)C(=O)NC1CC1	0	3%

entry	Rango-impB inh	KCNH2 3.1 block
25	0%	-113*
26	-2%	-70*
27	-4%	6
28	·	-9
29	0%	4
30	0%	-92*
31	-4%	-1
32	1%	19
33	-4%	-21
34	4%	-137*
35	-1%	8
36	4%	-195*

The list goes on:
entry	Compound	hERG WT inh	Rango release inh
37	N#C/C(=C\c1ccc(Cl)cc1)C(=O)NC1CC1	1	-4%
38	C=CCC[C@H](Cc1ccc(F)cc1)C(=O)OC[C@@H](NC(=O)[C@@H](CC=C)CC(=O)N[C@@H](CO)Cc1ccccc1)C(C)(C)C	-100*	-12%
39	C=CCC[C@@H](Cc1ccc(F)cc1)C(=O)OC[C@@H](NC(=O)[C@@H](CC=C)CC(=O)N[C@@H](CO)Cc1ccccc1)C(C)(C)C	·	0%
40	C(#Cc1c(-c2ccsc2)sc2ccccc12)c1ccsc1	-9	-15%
41	Cc1c(-c2ccccc2)nc2ccccc2c1C(=O)Oc1ccc([N+](=O)[O-])cc1	-87*	0%
42	Cc1nc2cccc(C(=O)Oc3ccc([N+](=O)[O-])cc3)c2o1	7	0%
43	O=C(CCN1CCN(C(c2ccccc2)c2ccccc2)CC1)N/N=C/c1ccc(O)cc1	0	1%
44	O=C(CCN1CCCCC1)N/N=C/c1ccc(Br)cc1	3	2%
45	COc1cc(/C=N/NC(=O)CN2CCCCC2)ccc1OCc1ccc(Br)cc1	27	-20%
46	Cc1ccc(-n2c(Cc3ccccc3)nnc2SCC(=O)NNC(=O)Cc2ccccc2)cc1	0	-7%
47	Cc1ccc(-c2noc(CSc3nnc(Cc4ccccc4)n3-c3ccc(Cl)cc3)n2)cc1	4	14%
48	CCOC(=O)CSc1nnc(Cc2ccccc2)n1-c1ccc(C)cc1	1	9%

entry	Rango-impB inh	KCNH2 3.1 block
37	4%	0
38	-5%	-17
39	3%	·
40	?	-2
41	5%	-77*
42	3%	-8
43	-4%	-80*
44	?	-75*
45	3%	-90*
46	-3%	-80*
47	1%	-74*
48	0%	2
